# An excerpt weighted towards active compounds, which were near 1.6% of everything screened.
# ARNT TACC3 PPI – disrupts binding between human ARNT and TACC3. Q9Y6A5. AlphaScreen His-ARNT PAS-B/GST-TACC3 binding, luminescence; TACC3 fragment carries E629A point mutation. inhibition, % at 9.99 µM. 0.66% of 390,000 active;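 active = mean inhibition of replicates at least 50% and at least half of replicates each reaching 50%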;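 also: 0% = complete ARNT plus TACC3 wells and 100% = ARNT alone without TACC3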
# CAL PDZ FP-1 – blocks peptide binding to the human CAL PDZ domain; Q9HD26; 0.92% of 300,000 active; AID 602252; inhibition, % at 24.9 µM; purified CAL PDZ, TMR-peptide fluorescence polarization, 1 h;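 active = mean inhibition of at least 30% with at least half of replicates also reaching 30%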;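 also: 0% = DMSO neutral control and 100% = excess unlabeled competitor peptide PRC23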
# PglD inh – blocks C. jejuni PglD acetyltransferase activity; purified PglD enzyme, DTNB colorimetric CoA detection; inhibition, % at 12.5 µM; 0.098% of 360,000 active; in the data active = inhibition above about 16%, passing the limit was not always enough
# CAL PDZ FP-2 – inhibitors of human CAL PDZ peptide binding; Q9HD26; purified CAL PDZ, TMR-peptide fluorescence polarization, 1 h; inhibition, % at 20 µM; 0.02% of 330,000 active; AID 504414;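 active = highest replicate inhibition of at least 40%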;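 also: plate controls were DMSO neutral control wells for no effect and unlabeled competitor peptide control wells for full effect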
#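 Test system: purified CerCALP PDZ construct; Compound dosing: one concentration, 20 µM compound; Also added: TMR-labelled reporter peptide T*-PRC34 bound in PDZ groove; Read-out: inhibition from polarization loss; Controls: unlabelled peptide and DMSO controls; Signal: FP readout, S and P plane fluorescence; Incubation: 1 h at RT.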
# Yeast UUG start-1 – alters start codon recognition fidelity in yeast; AID 602363; activity score, % at 18.7 µM; 350,000 tested, 0.13% active; S. cerevisiae UUG-firefly luciferase reporter, luminescence/redox ratio;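 active means replicate mean at a twofold rise or more, about +100% in these data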;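 further: firefly luciferase made from a UUG start codon reports start codon fidelity; reporter light over untreated wells divided by growth signal over untreated wells; some hits fall short of that in this replicate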
# Vif imaging – HIV Vif inhibition; HEK293T cells, Vif self-association by quenched fluorescence, imaging, 24 h; inhibition, % at 7.49 µM; 0.35% of 340,000 active; in the data active = inhibition above about 50%, passing the limit was not always enough
# Yeast UUG start-2 – modulators of start codon recognition fidelity in yeast; shares compounds with Yeast UUG start-1; S. cerevisiae UUG-start firefly luciferase, luminescence, 4 h; 100% means double the DMSO signal; activation, % at 38 µM; 540 tested, under 10 active; AID 652061;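 active = signal increase whose fitted curve reaches an absolute level of 40 at a concentration under 10 µM; inactive = activity opposite to the expected increase, or the rest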
# The depositor's hits bear a star; i = inactive; . = not tested or not shown.
# Assay codes – A = ARNT TACC3 PPI; B = CAL PDZ FP-1; C = PglD inh; D = CAL PDZ FP-2; E = Yeast UUG start-1; F = Vif imaging; G = Yeast UUG start-2
O=C(c1cccnc1)N1C[C@@H]2[C@H](c3ccccc31)[C@H](CO)N2C(=O)C1CCCCC1
  A: -8 | B: . | C: -1 | D: . | E: -10 | F: . | G: .

O=C(Cc1ccccc1)N1C[C@H]2[C@@H](c3ccccc31)[C@@H](CO)N2C(=O)c1ccc(F)cc1
  A: -8 | B: . | C: -1 | D: . | E: 109* | F: . | G: i

O=C(c1ccccc1F)N1C[C@@H]2[C@H](c3ccccc31)[C@@H](CO)N2C(=O)C1CCCC1
  A: -8 | B: . | C: -2 | D: . | E: active | F: . | G: i

O=C(C[C@H]1CC[C@@H]2[C@H](COC[C@@H](O)CN2C(=O)Nc2cc(Cl)cc(Cl)c2)O1)NCC1CCCCC1
  A: -11 | B: . | C: -1 | D: . | E: . | F: . | G: .

CCCC#Cc1cnc2c(c1)C(=O)N([C@H](C)CO)C[C@H](C)[C@@H](CN(C)C(=O)CCN1CCCCC1)O2
  A: 4 | B: . | C: -1 | D: . | E: 166* | F: 0 | G: 4

CC(C)CC#Cc1cnc2c(c1)C(=O)N([C@H](C)CO)C[C@H](C)[C@@H](CN(C)C(=O)CC1CC1)O2
  A: -3 | B: . | C: -5 | D: . | E: 147* | F: . | G: i

Cc1occc1C(=O)Nc1ccccc1NC(=O)c1ccoc1C
  A: -6 | B: -6 | C: 8 | D: 0 | E: 198* | F: -8 | G: -2

Cc1occc1C(=O)Nc1cccc2ccccc12
  A: -2 | B: -1 | C: -10 | D: -2 | E: -11 | F: 0 | G: .

C[C@@H]1CN([C@H](C)CO)C(=O)Cc2cc(NS(=O)(=O)c3ccc(F)cc3)ccc2O[C@H]1CN(C)C(=O)Nc1cccc2ccccc12
  A: -10 | B: . | C: -4 | D: . | E: 4 | F: . | G: .

CC(C)C#Cc1ccc2c(c1)O[C@H](CN(C)Cc1cccnc1)[C@H](C)CN([C@@H](C)CO)S2(=O)=O
  A: -1 | B: . | C: 3 | D: . | E: -6 | F: . | G: .

C[C@H]1CN([C@@H](C)CO)S(=O)(=O)c2ccc(C#CC3CCCC3)cc2O[C@H]1CN(C)Cc1cccnc1
  A: 1 | B: . | C: 1 | D: . | E: 142* | F: . | G: i

CC(C)C#Cc1ccc2c(c1)O[C@@H](CN(C)Cc1cccnc1)[C@H](C)CN([C@@H](C)CO)S2(=O)=O
  A: 3 | B: . | C: 2 | D: . | E: 72* | F: . | G: i

O=C(C1CCC1)N1C[C@@H]2[C@H](c3ccccc31)[C@H](CO)N2C(=O)Cc1ccccn1
  A: 18 | B: . | C: -2 | D: . | E: 111* | F: . | G: i

COc1ccccc1CN1[C@@H]2CN(C(=O)C3CCCC3)c3ccccc3[C@@H]2[C@@H]1CO
  A: 7 | B: . | C: -2 | D: . | E: 1 | F: . | G: .

COc1ccccc1CN1[C@@H]2CN(C(=O)C3CCC3)c3ccccc3[C@@H]2[C@@H]1CO
  A: 6 | B: . | C: 3 | D: . | E: 128* | F: . | G: i

O=C(C1CCCC1)N1C[C@H]2[C@@H](c3ccccc31)[C@H](CO)N2C(=O)Cc1ccccn1
  A: 24 | B: . | C: 13 | D: . | E: -8 | F: . | G: .

O=C(C1CCC1)N1C[C@H]2[C@@H](c3ccccc31)[C@H](CO)N2C(=O)Cc1ccccn1
  A: 21 | B: . | C: 4 | D: . | E: 130* | F: . | G: i

Cc1cc(C(=O)CSc2nnc(-c3ccncc3)n2-c2ccccc2)c(C)n1C
  A: 4 | B: -2 | C: . | D: -1 | E: . | F: 0 | G: 7

Cc1cc(C(=O)CSc2nnc(-c3ccccc3)n2C)c(C)n1C
  A: -2 | B: . | C: -2 | D: -1 | E: -8 | F: -4 | G: -7

Cn1c(SCC(=O)c2ccccc2)nnc1-c1cccnc1
  A: 0 | B: -1 | C: 1 | D: -3 | E: -18 | F: -19 | G: .

NC(=O)CSc1nc2ccccc2c(=O)n1Cc1ccco1
  A: 2 | B: 5 | C: -4 | D: -2 | E: -13 | F: -1 | G: .

C=CCn1c(SCC(=O)c2cc(C)n(C)c2C)nnc1-c1ccncc1
  A: -5 | B: 3 | C: -4 | D: -1 | E: -16 | F: -1 | G: .

Cc1cc(C(=O)CSc2nnc(-c3cccnc3)n2-c2ccccc2F)c(C)n1C
  A: 1 | B: -1 | C: . | D: -1 | E: -5 | F: -3 | G: 9

CCCn1c(C)cc(C(=O)CSc2nc3ccccc3c(=O)n2Cc2ccco2)c1C
  A: -9 | B: . | C: -14 | D: -1 | E: -21 | F: 4 | G: 15

CC=Cc1ccc2n(c1=O)C[C@H]1[C@H](CO)[C@@H](C(=O)NCC)N(C(=O)CC3CC3)[C@@H]21 (mixture of isomers)
  A: -4 | B: . | C: 2 | D: . | E: . | F: . | G: .

CCCN1C[C@@H](C)[C@@H](OC)CN(C)C(=O)c2cc(NC(=O)Nc3ccccc3F)ccc2OC[C@@H]1C
  A: -3 | B: . | C: -1 | D: . | E: . | F: . | G: .

# Record cards, from the list above. Screens in order: ARNT TACC3 PPI	CAL PDZ FP-1	PglD inh	CAL PDZ FP-2	Yeast UUG start-1	Vif imaging	Yeast UUG start-2
# `C[C@H]1CN([C@@H](C)CO)S(=O)(=O)c2ccc(C#CC3CCCC3)cc2O[C@H]1CN(C)Cc1cccnc1` in the list: 1	.	1	.	142*	.	i
# `O=C(C1CCC1)N1C[C@@H]2[C@H](c3ccccc31)[C@H](CO)N2C(=O)Cc1ccccn1` in the list: 18	.	-2	.	111*	.	i

# Screening data deposited in PubChem by Broad Institute.
